The record followed here is patent publication US8115007B2.

Series [1] is described as follows: Solubility of DAP Hemisulfate in water and ethanol at 25° C.
Series [2] is described as follows: Stability of TAP/K2-DHTA complex on exposure to air. Particulars: exposed to air.

Consider 2,6-diaminopyridine hemisulfate, for which, in series [1] (ethanol), the solubility in ethanol result is on record as “less than 0.15%”. Further, in series [1] (water), the solubility in water entry is on record as “about 1.5%”.

In the case of “Tetraaminopyridinium dipotassium dihydroxyterephthalate complex”, the “stability (oxygen sensitivity, discoloration)” value in series [2] was “discolored to orange and then light brown within a week”.
